Earlier results on one compound are cited in patent US7074935B2.

The structures appear in SMILES notation. Only a part of the results on these compounds is given; other tests are left out.

This data set deals with Plasma protein. To be noted: compared with fentanyl; cited from earlier work.

Take `CCC(=O)N(c1ccccc1)C1(COC)CCN(CCn2nnn(CC)c2=O)CC1`: the plasma protein binding entry is reported as “significantly greater than that for fentanyl”.
